The values below come from PMC11879040 (2024).

Protein sequences, listed by entry. Tags and fused reporters are not part of them. Lines headed by an entry give the natural chain unless they say otherwise; changes in a name come on top. Residues count along the entry.
UniProt P22303, 32-614: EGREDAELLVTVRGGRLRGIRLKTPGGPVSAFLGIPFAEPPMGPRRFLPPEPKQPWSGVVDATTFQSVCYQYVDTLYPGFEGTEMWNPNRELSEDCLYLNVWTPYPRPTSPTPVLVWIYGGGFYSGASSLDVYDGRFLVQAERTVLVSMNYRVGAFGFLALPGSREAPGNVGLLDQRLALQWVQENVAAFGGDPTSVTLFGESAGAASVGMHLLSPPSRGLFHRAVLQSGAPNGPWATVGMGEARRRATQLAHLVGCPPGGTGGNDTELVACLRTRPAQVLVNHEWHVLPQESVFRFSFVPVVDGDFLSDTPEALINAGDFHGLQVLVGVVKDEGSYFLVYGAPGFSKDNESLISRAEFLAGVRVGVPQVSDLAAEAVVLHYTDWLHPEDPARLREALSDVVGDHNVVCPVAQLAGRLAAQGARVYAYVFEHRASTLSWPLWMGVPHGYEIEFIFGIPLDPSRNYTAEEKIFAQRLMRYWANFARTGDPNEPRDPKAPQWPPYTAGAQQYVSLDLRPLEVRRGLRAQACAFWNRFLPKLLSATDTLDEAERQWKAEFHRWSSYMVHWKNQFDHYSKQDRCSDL
UniProt Q12809: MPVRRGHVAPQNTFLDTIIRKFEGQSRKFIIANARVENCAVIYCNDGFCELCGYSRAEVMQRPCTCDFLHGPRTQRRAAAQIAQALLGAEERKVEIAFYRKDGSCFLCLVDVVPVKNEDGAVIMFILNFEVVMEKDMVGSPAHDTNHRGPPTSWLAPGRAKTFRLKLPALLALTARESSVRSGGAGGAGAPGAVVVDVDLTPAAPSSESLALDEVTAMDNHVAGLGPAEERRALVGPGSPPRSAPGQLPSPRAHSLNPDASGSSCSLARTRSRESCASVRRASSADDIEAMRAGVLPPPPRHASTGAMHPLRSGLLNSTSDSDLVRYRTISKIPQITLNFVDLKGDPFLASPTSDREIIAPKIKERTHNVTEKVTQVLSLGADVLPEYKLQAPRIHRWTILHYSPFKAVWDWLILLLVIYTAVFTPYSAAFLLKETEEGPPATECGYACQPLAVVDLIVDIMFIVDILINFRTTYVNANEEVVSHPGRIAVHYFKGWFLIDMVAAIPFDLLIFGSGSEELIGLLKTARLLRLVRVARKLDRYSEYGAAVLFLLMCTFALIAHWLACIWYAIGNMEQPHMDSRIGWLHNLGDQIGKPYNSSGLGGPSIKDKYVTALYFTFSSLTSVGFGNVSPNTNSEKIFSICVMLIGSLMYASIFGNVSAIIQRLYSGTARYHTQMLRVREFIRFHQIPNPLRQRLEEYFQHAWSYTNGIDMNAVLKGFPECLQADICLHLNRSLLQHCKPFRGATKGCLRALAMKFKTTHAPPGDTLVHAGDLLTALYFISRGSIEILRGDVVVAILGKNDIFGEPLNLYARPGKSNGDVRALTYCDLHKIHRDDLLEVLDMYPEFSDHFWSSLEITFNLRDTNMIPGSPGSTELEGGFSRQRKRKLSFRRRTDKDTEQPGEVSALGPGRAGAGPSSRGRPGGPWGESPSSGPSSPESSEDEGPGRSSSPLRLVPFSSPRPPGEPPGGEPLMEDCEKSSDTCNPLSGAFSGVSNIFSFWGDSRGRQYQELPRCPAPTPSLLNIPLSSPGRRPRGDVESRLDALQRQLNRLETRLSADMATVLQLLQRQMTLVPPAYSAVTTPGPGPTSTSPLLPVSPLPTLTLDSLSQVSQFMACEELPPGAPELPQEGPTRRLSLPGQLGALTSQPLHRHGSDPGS

Where two headings read alike, the source gives them in different places.

The target in series [1] is Acetylcholinesterase, ACHE (h) (Homo sapiens, UniProt P22303). The settings on record: IPP screening at 10 uM; control galanthamine.
Series [2] deals with T1, Pregnane X receptor PXR, NR1I2 (h) (Homo sapiens, UniProt O75469).
T1 sequence (O75469 1-434): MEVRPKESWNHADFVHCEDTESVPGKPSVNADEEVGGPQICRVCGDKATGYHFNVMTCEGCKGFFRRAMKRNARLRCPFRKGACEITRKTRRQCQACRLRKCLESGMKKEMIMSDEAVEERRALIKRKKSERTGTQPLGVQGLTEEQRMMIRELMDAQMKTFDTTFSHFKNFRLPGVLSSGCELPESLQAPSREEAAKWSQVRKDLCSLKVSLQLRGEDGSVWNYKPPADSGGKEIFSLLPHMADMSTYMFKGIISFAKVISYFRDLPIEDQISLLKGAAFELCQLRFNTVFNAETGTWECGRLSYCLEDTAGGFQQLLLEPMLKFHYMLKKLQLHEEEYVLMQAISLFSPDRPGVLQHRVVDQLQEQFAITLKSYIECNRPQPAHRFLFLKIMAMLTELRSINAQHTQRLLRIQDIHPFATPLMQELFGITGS

Series [3] addresses T1, Pregnane X receptor PXR, NR1I2 (h). This is another data set of the same source.
Series [4] has as its target Potassium voltage-gated channel subfamily H member 2 hERG, KCNH2 (h) (Homo sapiens, UniProt Q12809).
The next series relates to rat. The settings on record: multi-generational rat study; ref [10]; cited from earlier work.
The conditions of series [5]: ref [10]; cited from earlier work.

The substance “(4S,4aR,5S,5aR,6S,12aS)-4-(Dimethylamino)-3,5,6,10,12,12a-hexahydroxy-6-methyl-1,11-dioxo-1,4,4a,5,5a,6,11,12a-octahydrotetracene-2-carboxamide--hydrogen chloride (1/1) [Oxytetracycline hydrochloride]” gave an Enzymatic activity in series [1] of 1.6%.
On to “mixture of 2- and 3-tert-butyl-4-methoxyphenol [Butylated Hydroxyanisole]”, for which the “IPP screening %, Coactivator recruitment” value in series [2] is -1.3%; in series [3], 15.1%. In series [4], the “IPP screening %, Specific binding” value was 5.4%. For the same substance, the NOAEL in the series on rat was 100 mg/kg bw/day. The ADI in series [5] is given as 1 mg/kg bw/day.
